Source: PubChem (National Center for Advancing Translational Sciences (NCATS))
Lamin A splicing: LMNA splicing modulation | 200,000 compounds, 0.01% hits | HeLa LMNA splicing GFP/RFP minigene ratio, 48 h | Potency, µM (highest dose often 46.1 µM), without a hit: top-dose ratio change, negative = inhibition, most hits filed as inhibitors; active means well fitted inhibition curve with a large enough effect in the signal ratio, with a control signal flat, not every such curve was filed as active; inconclusive means small, poorly fitted or top-dose-only effect, or effect the other way, or a change in a side signal; the % refers to the signal ratio; further: potency means the concentration at half of the fitted maximal effect; on the % scale 0 is the no-effect control and ±100 the full control effect
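Read-out is the ratio of GFP to DsRed2 object intensity, acquired by 488 nm laser-scanning cytometry on HeLa lamin A-EGFP minigene reporter cells. Compound incubation 48 hrs at 37 °C in Opti-MEM with 2% FBS; DMSO 0.5% final.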
JMJD2E inh: inhibitors of human JMJD2E histone demethylase; JMJD2E catalytic domain, FDH-coupled NADH fluorescence (FDH is formaldehyde dehydrogenase); Potency, µM (titrated, usually from 57.1 µM), inactives show at the top dose activity change, negative = inhibition, hits mostly inhibitors; 230,000 compounds, 1.6% hits; active means well fitted inhibition curve with a large enough effect, not every such curve was filed as active; inconclusive means small, poorly fitted or top-dose-only effect, or another doubt; inactive means no such curve, though single readings can be large or run the other way;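 further: potency means the concentration at half of the fitted maximal effect; 0% = wells with enzyme and -100% = buffer wells without enzyme; nearly all actives have a fitted effect of over 50% in size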
ALDH1A1 inh: ALDH1A1 (human) enzyme inhibition; Potency, µM (series often up to 75.3 µM), for inactives: at the top dose activity, negative = inhibition, usual class: inhibitors; 220,000 compounds, 7.3% hits; Purified ALDH1A1, NADH fluorescence, propionaldehyde substrate; P00352; active means well fitted inhibition curve with a large enough effect, not every such curve was filed as active; inconclusive means small, poorly fitted or top-dose-only effect, or another doubt; inactive means no such curve, though single readings can be large or run the other way;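 further: potency means the concentration at half of the fitted maximal effect; plate controls were no enzyme wells and a reference inhibitor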
Sfp inh: qHTS Assay for Inhibitors of Bacillus subtilis Sfp phosphopantetheinyl transferase (PPTase) | 4'-phosphopantetheinyl transferase ffp (Bacillus subtilis), Q9F4F7 | AID 1490, 2009 | actives 3.5% (n = 310,000) | Biochemical Sfp PPTase activity, qHTS | Potency, µM, for inactives: max response, negative = inhibition, most hits filed as inhibitors; active = well fitted inhibition curve with a large enough effect; inconclusive = small, poorly fitted or top-dose-only effect, or another doubt; inactive = no such curve, though single readings can be large or run the other way;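 also: the enzyme is Sfp with the accession as filed and its product quenches rhodamine fluorescence; potency is read from the fitted curve at half-maximal effect; 0% = enzyme reaction without inhibitor and -100% = no enzyme wells; top concentration of the series not given in the record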
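Fluorescence-quenching assay: 15 nM Sfp-PPTase preincubated 15 min at room temperature with compound, then 5 uM rhodamine-CoA and 12.5 uM BHQ-2-labelled YbbR peptide added. Fluorescence (ex 525/em 598 nm) read at start and after 30 min; difference gives rate.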
miR-21 reporter: raises the signal of a miR-21 reporter | Potency, µM (doses to about 38.3 µM), for inactives: top-dose reporter change, positive = more light | HeLa miR-21 FLuc reporter, luciferase, 48 h | AID 2288 | 340,000 tested, under 10 active; active = well fitted rising curve with a large enough effect; inconclusive = small, poorly fitted or top-dose-only effect; inactive = no such curve, though single readings can be large or run the other way;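 also: % of control where 0% means no effect; miR-21 action dims this reporter so a rising signal means less miR-21 action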
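HeLa cells stably expressing CMV-driven firefly luciferase with a downstream miR-21 binding sequence, endogenously expressing miR-21, were treated with titrations (up to about 40uM final) for 48 hours at 37 degree Celsius. Luciferase luminescence was read after lysis.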
G9a block: inhibitors of human histone lysine methyltransferase G9a; Q96KQ7; G9a H3K9 monomethylation, AlphaScreen, 2 h; Potency, µM (series often up to 102 µM), for inactives: top-dose activity, negative = inhibition, hits mostly inhibitors; 350,000 compounds, 8.8% hits; AID 504332; further: potency means the concentration at half of the fitted maximal effect; on the % scale 0 is the no-effect control and ±100 the full control effect; nearly all actives have a fitted effect of over 75% in size
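AlphaScreen read-out: biotin-H3K9 peptide (500 nM) methylation by 20 nM enzyme with 20 uM SAM, 2 h at room temperature after 15 min compound preincubation; anti-monomethyl H3K9 antibody plus donor/acceptor beads, 10 min dark.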
* = called active by the depositor; u = inconclusive; x = no result given; [ ] = remark or other dose. An excerpt weighted towards active compounds, which were near 13% of everything screened. Unless noted, the call rests on the fitted dose curve; in most records, active means well fitted curve in the direction sought with a large enough effect; inconclusive means small, poorly fitted or top-dose-only effect, or another doubt; inactive means no such curve, though single readings can be large; an effect the other way counts as inactive or inconclusive.

| # | Lamin A splicing | JMJD2E inh | ALDH1A1 inh | Sfp inh | miR-21 reporter | G9a block | molecule |
| --- | --- | --- | --- | --- | --- | --- | --- |
| 1 | 8%[9.22 µM] | -7% | 3% | u | 0% | 32µM* | COc1ccc(C(CC(=O)O)NC(=O)COc2cc(C)ccc2C)cc1OC (stereo not drawn) |
| 2 | -3%[9.22 µM] | 0% | -1% | 19% | -2% | -44% | COc1ccc(OCC(=O)NC(CC(=O)O)c2ccc(OC)c(OC)c2)cc1 (stereo not drawn) |
| 3 | x | x | x | x | x | 10µM* | C[C@H]1c2cccc(O)c2C(O)=C2C(=O)[C@]3(O)C(O)=C(C(N)=O)C(=O)[C@@H](N(C)C)C3[C@@H](O)C21 (stereo partly drawn) |
| 4 | u | u | 6%[20.9 µM] | u | x | 4µM* | C=C1c2cccc(O)c2C(O)=C2C(=O)[C@@]3(O)C(O)=C(C(N)=O)C(=O)[C@@H](N(C)C)[C@@H]3[C@@H](O)[C@H]12 |
| 5 | -10% | -23%[25.5 µM] | -2%[20.9 µM] | 7% | x | -44%[12.7 µM] | C[C@@H]1c2cccc(O)c2C(O)=C2C(=O)[C@@]3(O)C(O)=C(C(N)=O)C(=O)[C@@H](N(C)C)[C@@H]3[C@@H](O)[C@@H]21 |
| 6 | x | x | x | 11% | -3% | 12% | Cc1ccc(NC(=O)CN(C)C(=O)COC(=O)CCS(=O)(=O)c2ccc(C)cc2)cc1 |
| 7 | x | x | x | x | x | 45µM* | Nn1c(SCC(=O)NCCC2=CCCCC2)nnc1-c1cccnc1 |
| 8 | 12% | u | 5µM* | u | 2% | -25%[59 µM] | Cc1cccc(-n2nnnc2SC(C)C(=O)NCCC2=CCCCC2)c1 (stereo not drawn) |
| 9 | -10% | 1% | 20µM* | u | -6% | 8.9µM* | CC(C)c1nnc(SCC(=O)NCCC2=CCCCC2)n1N |
| 10 | x | x | x | x | x | 3% | Nc1cc(N)nc(SCC(=O)NCCC2=CCCCC2)n1 |
| 11 | u | -4% | 9% | 17% | -1% | -39% | COCCCNC(=O)CC1C(=O)N(Cc2ccccc2)C(C)c2nc3ccccc3n21 (stereo not drawn) |
| 12 | x | x | x | 4% | -2% | -5% | CCC1CCCCN1C(=O)Cn1c(=O)n(CCCC(=O)NCc2ccco2)c(=O)c2sccc21 (stereo not drawn) |
| 13 | u | u | u | 9% | -3% | 5% | Cc1cc(C)n2c(Br)c(CN3CCCC(C)C3)nc2n1 (stereo not drawn) |
| 14 | 3% | u | u | 0% | -29% | 50µM* | Cc1cc(C)nc(SCc2nc3nc(C)cc(C)n3c2Br)n1 |
| 15 | u | -1% | -2% | 79µM* | 3% | -1%[59 µM] | O=C(Cn1c(C(F)(F)F)nc2ccccc21)Oc1cccc(C(F)(F)F)c1 |
| 16 | 5% | -17% | u | -10% | 0% | 64% | Cc1cccc(OC(=O)Cn2c(C(F)(F)F)nc3ccccc32)c1 |
| 17 | x | x | x | 45µM* | 24% | 7.9µM* | CCN(CC)S(=O)(=O)c1ccc(O)c(NC(=O)c2cc(-c3cc(OC)c(OC)c(OC)c3)nc3ccccc23)c1 |
| 18 | x | 2% | x | 8% | 1% | 6% | CCCNC(=O)Nc1cc(S(=O)(=O)CC)ccc1O |
| 19 | -5% | 2% | 16µM* | -8% | -4% | -8%[59 µM] | CCS(=O)(=O)c1ccc(O)c(NC(=O)c2cc(OC)c(OC)c(OC)c2)c1 |
| 20 | x | x | x | 11% | -8% | 29% | CC(C)(C)c1ccc(OCC(=O)Nc2ccncc2)cc1 |
| 21 | 9%[46 µM] | x | x | x | 2% | -1%[59 µM] | CCCCCNC(=O)C(=O)NCC(c1ccc2c(c1)OCO2)N1CCOCC1 (stereo not drawn) |
| 22 | x | u | x | -12% | 1% | 13µM* | CC1S/C(=N/N=C/c2cccc([N+](=O)[O-])c2)NC1=O (stereo not drawn) |
| 23 | -10% | -2% | -7% | 13% | -37% | 20% | CC1S/C(=N/N=C/c2cccs2)NC1=O (stereo not drawn) |
| 24 | 7% | -4% | -8% | 17% | -10% | u | CC(=O)N1CCN(c2ccc(NC(=O)c3ccc4c(c3)OCCO4)cc2)CC1 |
| 25 | u | -3% | -37% | 10% | 4% | 3.5µM* | O=C(Nc1ccc(N2CCCCC2)cc1)c1ccc2c(c1)OCCO2 |

3 structures from above, ordered by molar mass, high to low.
| # | Lamin A splicing | JMJD2E inh | ALDH1A1 inh | Sfp inh | miR-21 reporter | G9a block | molecule |
| --- | --- | --- | --- | --- | --- | --- | --- |
| 17 | x | x | x | 45µM* | 24% | 7.9µM* | CCN(CC)S(=O)(=O)c1ccc(O)c(NC(=O)c2cc(-c3cc(OC)c(OC)c(OC)c3)nc3ccccc23)c1 |
| 19 | -5% | 2% | 16µM* | -8% | -4% | -8%[59 µM] | CCS(=O)(=O)c1ccc(O)c(NC(=O)c2cc(OC)c(OC)c(OC)c2)c1 |
| 9 | -10% | 1% | 20µM* | u | -6% | 8.9µM* | CC(C)c1nnc(SCC(=O)NCCC2=CCCCC2)n1N |

As entered above.
JMJD2E inh result of cpd 15 → -1%
miR-21 reporter result of cpd 23 → -37%
